Data published in ChEMBL document CHEMBL1123240, “Cyclic analogues of 2-amino-4-phosphonobutanoic acid (APB) and their inhibition of hippocampal excitatory transmission and displacement of [3H]APB binding” (J Med Chem, 1986).

Experiment: Ratio of IC50 of Lateral perforant path(LPP) to IC50 of [3H]- binding
Assay type: tissue-based
How it was run: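 Ratio of IC50 values. For line 8, LPP IC50 from slice recording over [3H]APB binding IC50. Each IC50 is a weighted mean of IC50s calculated for each experimental point, or for steep agonist-like curves is read directly from the log concentration–response curve.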

Row | Structure (SMILES) | Ratio
1 | N[C@@]1(C(=O)O)CC[C@H](P(=O)(O)O)C1 | 200
2 | N[C@@]1(C(=O)O)CC[C@@H](P(=O)(O)O)C1 | 1.6
3 | N[C@@H](CCP(=O)(O)O)C(=O)O | 1.7
